The values that follow come from US10287267B2, “Isoquinolin-3-yl carboxamides and preparation and use thereof” (Samumed, LLC, priority 2016, dated 2019).

Structures are written as SMILES.

Type in all cases: cell-based
For test [1], the system named is Tau phosphorylation at Ser396 (pSer396). Nature of the test: Tau phosphorylation assay (pSer396 ELISA / western blot) in SH-SY5Y cells.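 Further: EC50 for reduction of Tau pSer396 in lysed cells, measured by colorimetric ELISA or chemiluminescent western blot, both using the same pSer396 antibody.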 The following applies: Homo sapiens, read-out: pSer396 Tau EC50.
For test [2], the system named is secreted β-amyloid 40 (Aβ40) peptide. Nature of the test: Secreted β-amyloid 40 (Aβ40) peptide in APP overexpressing SH-SY5Y-APP cells. Particulars: Homo sapiens, overnight (16-18 hours).
Test [3] deals with α-smooth muscle actin (αSMA) positive LL29 cells. As to the kind of experiment: Inhibition of fibrotic process: αSMA in TGF-β1 treated primary human fibroblasts from IPF patients.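 Further: controls were TGF-β1 stimulated wells with DMSO vehicle (positive) and cells given DMSO alone (negative), cultured in F12 medium with 1% fetal bovine serum.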 Particulars: Fibroblast, 96 h, Table 8, TGF-β1 20 ng/mL, 4 days, dose-response 10 μM to 0.94 nM.

As for `[2H]C([2H])([2H])C([2H])(C([2H])([2H])[2H])C([2H])([2H])N1CCC(C(=O)Nc2cc3cc(-c4cnn(C)c4)ccc3cn2)CC1` [Compound 1086, N-(6-(1-Methyl-1H-pyrazol-4-yl)isoquinolin-3-yl)-1-(2-(methyl-d3)propyl-1,1,2,3,3,3-d6)piperidine-4-carboxamide], in test [1], the concentration giving a half-maximal response (EC50) stood at 168 nM. As for `[2H]c1nc(NC(=O)C2CCN(CC(C)C)CC2)cc2cc(-c3cnn(C)c3)ccc12` [Compound 1087, 1-Isobutyl-N-(6-(1-methyl-1H-pyrazol-4-yl)isoquinolin-3-yl-1-d)piperidine-4-carboxamide], in test [1], the EC50 amounted to 160 nM.

As to `CC(C)CN1CCC(C(=O)Nc2cc3cc(-c4cnn(C)c4)ccc3cn2)CC1` [Compound 77, 1-Isobutyl-N-(6-(1-methyl-1H-pyrazol-4-yl)isoquinolin-3-yl)piperidine-4-carboxamide], the IC50 in test [2] turned out to be 1100 nM. Also, the EC50 in test [1] came out at 184 nM; in test [3] it was 146 nM. With `[2H]C([2H])([2H])n1cc(-c2ccc3cnc(NC(=O)C4CCN(CC(C)C)CC4)cc3c2)cn1` [Compound 972, 1-Isobutyl-N-(6-(1-(methyl-d3)-1H-pyrazol-4-yl)isoquinolin-3-yl)piperidine-4-carboxamide], the EC50 is 355 nM in test [1] and 754 nM in test [3].

What is called EC50 is the concentration needed to bring the measured effect to its halfway point. As a reminder, the IC50 is the point on the concentration scale where inhibition reaches its midpoint.
